The target of the assay is T1, biotin labeled human recombinant Sclerostin (human, UniProt Q9BQB4 24-213).
T1 construct: also called human Sclerostin; huSOST
T1 sequence (looked up): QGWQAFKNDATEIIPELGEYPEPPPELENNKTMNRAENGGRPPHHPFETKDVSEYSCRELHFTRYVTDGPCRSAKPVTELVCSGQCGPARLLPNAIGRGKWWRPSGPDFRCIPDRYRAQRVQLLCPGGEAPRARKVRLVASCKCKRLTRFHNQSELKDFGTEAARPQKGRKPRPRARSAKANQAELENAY
The assay can be described thus: AlphaScreen Sclerostin/LRP-6 inhibition (Avimer-Ab fusions, muLRP-6/His per paragraph 194).

B1: P7655 (bispecific antibody, human IgG2, lambda)
heavy: SGGSCPAYTEFLCKDSDRCFPSEWRCDGEMDCVDGSDELHCGGGGCAPNQFRCNSYDKCVPAHWVCDGVLDCLDSSDETNCGGGGSGGGGSQVQLVESGGGVVQPGRSLRLSCAASGFTFSRYDMHWVRQAPGKGLEWVAIIFYDGSNKYYADPVKGRFTISRDNSKNTLYLQMNSLRAEDTAVYYCATLAAAFDYWGQGTLVTVSSASTKGPSVFPLAPCSRSTSESTAALGCLVKDYFPEPVTVSWNSGALTSGVHTFPAVLQSSGLYSLSSVVTVPSSNFGTQTYTCNVDHKPSNTKVDKTVERKCCVECPPCPAPPVAGPSVFLFPPKPKDTLMISRTPEVTCVVVDVSHEDPEVQFNWYVDGVEVHNAKTKPREEQFNSTFRVVSVLTVVHQDWLNGKEYKCKVSNKGLPAPIEKTISKTKGQPREPQVYTLPPSREEMTKNQVSLTCLVKGFYPSDIAVEWESNGQPENNYKTTPPMLDSDGSFFLYSKLTVDKSRWQQGNVFSCSVMHEALHNHYTQKSLSLSPGK
light: not shown
notes: also called C140165
For the molecule B1, the half-maximal inhibitory concentration (IC50) amounted to 150 nM.

Values taken from patent publication US9708375 (Amgen, dated 2017).
